{"source": "patent US9931332B2", "about": "“Compositions and methods for treating primary effusion lymphoma” (University of Southern California, priority 2014, dated 2018)", "molecules": {"B1": {"name": "IFN-β: recombinant interferon β (protein, UniProt P01574 22-187, looked up)", "Interferon beta": "MSYNLLGFLQRSSNFQCQKLLWQLNGRLEYCLKDRMNFDIPEEIKQLQQFQKEDAALTIYEMLQNIFAIFRQDSSSTGWNETIVENLLANVYHQINHLKTVLEEKLEKEDFTRGKLMSSLHLKRYYGRILHYLKAKEYSHCAWTIVRVEILRNFYFINRLTGYLRN"}}, "key": {"BJAB cells": {"test_system": "BJAB cells", "test": "Cell viability, MTS assay", "assay_type": "cell-based", "settings": "5 days", "procedure": "(§1) Cells from exponentially growing cultures were plated in untreated flat-bottom 96 well plates at a density of 5×10^3 cells/well, treated with an increasing concentration of the drugs and subsequently assessed for cell viability using the MTS reagent (3-4,5-dimethylthiazol-2yl)-5-(3-carboxy-methoxyphenyl)-2-(4-sulfophenyl)-2H-tetrazolium, inner salt) following the manufacturer's instructions (Promega). Percent cell survival was calculated based on the reading of cells grown in the presence of DMSO control. Experiments were performed in triplicate and have been repeated 2-3 times."}, "PEL cell lines": {"test_system": "PEL cell lines", "test": "Cell viability, MTS assay", "assay_type": "cell-based", "procedure": "as §1"}}}
{"molecule": "B1", "values": [{"measurement": "effect of recombinant IFN on BJAB", "setting": "BJAB cells", "value": "very little effect"}, {"measurement": "sensitivity of BC-3, BCBL-1 and JSC-1 to recombinant IFN", "setting": "PEL cell lines; 5 days", "value": "highly sensitive"}, {"measurement": "sensitivity of the 5 PEL cell lines to recombinant IFN", "setting": "PEL cell lines; BC-3, BCBL-1, JSC-1, BC-1 and VG-1, 5 days", "value": "sensitive"}]}
